The target in assay [1] is T1, in vitro-translated, 35S-labelled full-length human ZHX3 (human, UniProt Q9H4I2 1-956, 35S-labelled).
T1 sequence: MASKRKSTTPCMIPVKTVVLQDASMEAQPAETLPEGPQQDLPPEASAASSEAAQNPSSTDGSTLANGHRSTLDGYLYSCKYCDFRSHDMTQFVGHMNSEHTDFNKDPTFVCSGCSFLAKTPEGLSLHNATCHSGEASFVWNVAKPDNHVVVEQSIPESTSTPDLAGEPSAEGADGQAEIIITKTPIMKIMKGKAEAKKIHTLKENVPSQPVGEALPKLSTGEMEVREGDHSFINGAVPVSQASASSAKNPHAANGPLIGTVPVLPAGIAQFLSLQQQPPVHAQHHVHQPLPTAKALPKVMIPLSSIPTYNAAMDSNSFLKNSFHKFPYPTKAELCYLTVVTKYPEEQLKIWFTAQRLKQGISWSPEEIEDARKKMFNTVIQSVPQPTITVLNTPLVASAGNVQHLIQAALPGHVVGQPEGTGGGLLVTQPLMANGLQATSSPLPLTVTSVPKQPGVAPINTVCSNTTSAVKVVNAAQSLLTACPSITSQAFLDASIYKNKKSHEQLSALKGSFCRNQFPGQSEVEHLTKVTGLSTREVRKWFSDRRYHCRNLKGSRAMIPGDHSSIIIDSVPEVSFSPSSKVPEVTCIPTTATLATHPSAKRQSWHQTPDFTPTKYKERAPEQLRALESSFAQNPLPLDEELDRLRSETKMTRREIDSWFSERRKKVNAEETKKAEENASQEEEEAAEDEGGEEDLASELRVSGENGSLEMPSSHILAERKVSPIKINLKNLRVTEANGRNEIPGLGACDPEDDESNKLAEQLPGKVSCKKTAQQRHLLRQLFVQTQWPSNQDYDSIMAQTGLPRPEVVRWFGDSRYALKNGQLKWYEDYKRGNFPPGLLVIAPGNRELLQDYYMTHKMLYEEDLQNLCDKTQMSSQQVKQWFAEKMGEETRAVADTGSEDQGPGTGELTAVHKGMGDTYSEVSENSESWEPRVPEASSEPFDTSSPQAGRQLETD
In words: GST pull-down, SDS/PAGE and autoradiography. An excerpt:
(§1) The beads were washed thoroughly and the bound protein was eluted and analysed by SDS/PAGE (10% gel). Interaction signals were detected by an autoradiography. Lanes 2, 4 and 7, 10% of the protein added to the reactions shown in the other lanes were loaded.
(§2) The preparation of the GST fusion protein, ³⁵S-labelling of in vitro-translated ZHX1 and pull-down analysis have been described previously (Yamada, K., Printz, R. L., Osawa, H., and Granner, D. K. (1999) Biochem. Biophys. Res. Commun. 261, 614-621; Hirano, S., Yamada, K., Kawata, H., Shou, Z., Mizutani, T., Yazawa, T., Kajitani, T., Sekiguchi, T., Yoshino, M., Shigematsu, Y, Mayumi, M., and Miyamoto, K. (2002) Gene 290, 107-114). […] Finally, the beads were resuspended in an equal volume of 2×SDS sample buffer and each supernatant was loaded on to an SDS/PAGE gel (10%), along with a prestained molecular-mass marker. The gel was dried and exposed to a FUJIX imaging plate (Kanagawa, Japan). Interaction signals were detected using the FUJIX BAS-2000 image analysing system. The relative purity and amounts of each fusion protein were determined by gel-staining with Coomassie Brilliant Blue R-250.
(§3) The inventors also carried out in vitro GST pull-down assays (reference example 6) to verify the specific interaction between ZHX1 and ZHX3.

Assay [2] deals with T2, in vitro-translated, 35S-labelled full-length human ZHX1 (human, UniProt Q9UKY1 1-873, limits assumed, 35S-labelled).
T2 sequence (looked up): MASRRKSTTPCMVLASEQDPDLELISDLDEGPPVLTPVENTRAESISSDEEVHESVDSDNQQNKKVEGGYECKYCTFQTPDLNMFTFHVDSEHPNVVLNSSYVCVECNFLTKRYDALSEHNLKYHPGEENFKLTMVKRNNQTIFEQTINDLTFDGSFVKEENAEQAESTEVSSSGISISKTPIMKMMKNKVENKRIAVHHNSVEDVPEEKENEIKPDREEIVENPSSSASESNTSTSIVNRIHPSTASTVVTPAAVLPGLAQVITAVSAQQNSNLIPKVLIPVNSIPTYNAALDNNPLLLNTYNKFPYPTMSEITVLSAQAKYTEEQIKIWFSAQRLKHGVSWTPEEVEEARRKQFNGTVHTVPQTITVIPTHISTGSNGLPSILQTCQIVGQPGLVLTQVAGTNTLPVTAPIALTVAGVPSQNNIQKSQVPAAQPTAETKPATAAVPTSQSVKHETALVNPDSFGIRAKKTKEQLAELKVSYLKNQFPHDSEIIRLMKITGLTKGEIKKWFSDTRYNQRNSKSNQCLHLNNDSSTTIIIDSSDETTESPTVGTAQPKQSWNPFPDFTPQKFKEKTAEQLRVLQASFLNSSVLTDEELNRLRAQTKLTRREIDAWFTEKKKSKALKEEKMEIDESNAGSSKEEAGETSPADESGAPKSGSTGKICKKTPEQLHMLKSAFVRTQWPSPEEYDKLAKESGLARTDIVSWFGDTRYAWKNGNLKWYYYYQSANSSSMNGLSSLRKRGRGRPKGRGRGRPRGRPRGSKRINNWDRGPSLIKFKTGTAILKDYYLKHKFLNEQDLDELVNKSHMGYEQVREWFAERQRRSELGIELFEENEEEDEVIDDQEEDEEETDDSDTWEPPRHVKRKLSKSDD
In words: GST pull-down, SDS/PAGE and autoradiography.
From the text: as §1, §2, §3

B1: GST alone (pGEX-5X-1) (other, UniProt P08515 1-218, looked up)
chain: MSPILGYWKIKGLVQPTRLLLEYLEEKYEEHLYERDEGDKWRNKKFELGLEFPNLPYYIDGDVKLTQSMAIIRYIADKHNMLGGCPKERAEISMLEGAVLDIRYGVSRIAYSKDFETLKVDFLSKLPEMLKMFEDRLCHKTYLNGDHVTHPDFMLYDALDVVLYMDPMCLDAFPKLVCFKKRIEAIPQIDKYLKSSKYIAWPLQGWQATFGGGDHPPK
notes: Control, expressed in E. coli and immobilized on glutathione-Sepharose beads
For B1, the binding result in assay [1] and in assay [2] was “no binding” each time.
